Tests used:
[1] = system: U87 glioblastoma cell line; conditions: read-out: IC50 antiproliferative activity, synthetic arsenicin A; cited from earlier work
[2] = system: COMI glioblastoma stem cell line; experiment: GI50 growth inhibition, viable cell count (Hoechst 33342/PI), 48 h; assay type: cell-based, Human
[3] = system: G144 glioblastoma stem cell line; experiment: as above; assay type: cell-based, Human
[4] = system: G166 glioblastoma stem cell line; experiment: as above; assay type: cell-based, Human
[5] = system: GB6 glioblastoma stem cell line; experiment: as above; assay type: cell-based, Human
[6] = system: GB7 glioblastoma stem cell line; experiment: as above; assay type: cell-based, Human
[7] = system: GB8 glioblastoma stem cell line; experiment: as above; assay type: cell-based, Human
[8] = system: GSC#1 glioblastoma stem cell line; experiment: as above; assay type: cell-based, Human
[9] = system: GSC#151 glioblastoma stem cell line; experiment: as above; assay type: cell-based, Human
[10] = system: VIPI glioblastoma stem cell line; experiment: as above; assay type: cell-based, Human
[11] = system: ARPE-19 retinal pigmented epithelium cell line; experiment: GI50 growth inhibition on non-tumor cell line, 48 h; assay type: cell-based, Human
[12] = system: Hs68 foreskin fibroblast cell line; experiment: as above; assay type: cell-based, Human
[13] = system: MCF10A breast epithelium cell line; experiment: as above; assay type: cell-based, Human
[14] = system: hTERT-HPNE pancreatic duct cell line; experiment: as above; assay type: cell-based, Human
[15] = system: COMI cells; experiment: GI50 on COMI cells under normoxic or hypoxic conditions; assay type: cell-based, Human; conditions: Normoxia (21% oxygen), 48 h, mean ± SEM, n = 6
[16] = system: panel of nine patient-derived GSC lines; experiment: GI50 growth inhibition over the GSC line panel; assay type: cell-based, Human; conditions: range over nine GSC lines

C1[As]2C[As]3O[As]1C[As](O2)O3
IC50 [1]: 0.2 µM

CCCC1[As]2O[As]3O[As]1O[As](O2)C3CCC (stereo not shown)
Ratio GI50 ATO / GI50 alkyl polyarsenical [2]: 23.2
Ratio GI50 ATO / GI50 alkyl polyarsenical [3]: 26.9
Ratio GI50 ATO / GI50 alkyl polyarsenical [4]: 16.5
Ratio GI50 ATO / GI50 alkyl polyarsenical [5]: 8.7
Ratio GI50 ATO / GI50 alkyl polyarsenical [6]: 27.0
Ratio GI50 ATO / GI50 alkyl polyarsenical [7]: 13.0
Ratio GI50 ATO / GI50 alkyl polyarsenical [8]: 11.7
Ratio GI50 ATO / GI50 alkyl polyarsenical [9]: 23.5
Ratio GI50 ATO / GI50 alkyl polyarsenical [10]: 24.3
Selectivity Index (SI) ([11]; GI50 ARPE-19 / GI50 COMI): 13.5
Selectivity Index (SI) ([11]; GI50 ARPE-19 / GI50 G144): 6.8
Selectivity Index (SI) ([11]; GI50 ARPE-19 / GI50 G166): 2.3
Selectivity Index (SI) ([11]; GI50 ARPE-19 / GI50 GB6): 1.6
Selectivity Index (SI) ([11]; GI50 ARPE-19 / GI50 GB7): 10.8
Selectivity Index (SI) ([11]; GI50 ARPE-19 / GI50 GB8): 1.9
Selectivity Index (SI) ([11]; GI50 ARPE-19 / GI50 GSC#1): 3
Selectivity Index (SI) ([11]; GI50 ARPE-19 / GI50 GSC#151): 3.2
Selectivity Index (SI) ([11]; GI50 ARPE-19 / GI50 VIPI): 3
Selectivity index (SI) value range ([11]; GI50 ARPE-19 / GI50 of GSC lines, range over nine GSC lines): 1.6 to 13.5
Selectivity Index (SI) ([12]; GI50 Hs68 / GI50 COMI): 107
Selectivity Index (SI) ([12]; GI50 Hs68 / GI50 G144): 53.6
Selectivity Index (SI) ([12]; GI50 Hs68 / GI50 G166): 17.9
Selectivity Index (SI) ([12]; GI50 Hs68 / GI50 GB6): 12.6
Selectivity Index (SI) ([12]; GI50 Hs68 / GI50 GB7): 85.8
Selectivity Index (SI) ([12]; GI50 Hs68 / GI50 GB8): 15.3
Selectivity Index (SI) ([12]; GI50 Hs68 / GI50 GSC#1): 23.8
Selectivity Index (SI) ([12]; GI50 Hs68 / GI50 GSC#151): 25.2
Selectivity Index (SI) ([12]; GI50 Hs68 / GI50 VIPI): 23.8
Selectivity index (SI) value range ([12]; GI50 Hs68 / GI50 of GSC lines, range over nine GSC lines): 12.6 to 107
Selectivity Index (SI) ([13]; GI50 MCF10A / GI50 COMI): 13.3
Selectivity Index (SI) ([13]; GI50 MCF10A / GI50 G144): 6.6
Selectivity Index (SI) ([13]; GI50 MCF10A / GI50 G166): 2.2
Selectivity Index (SI) ([13]; GI50 MCF10A / GI50 GB6): 1.6
Selectivity Index (SI) ([13]; GI50 MCF10A / GI50 GB7): 10.6
Selectivity Index (SI) ([13]; GI50 MCF10A / GI50 GB8): 1.9
Selectivity Index (SI) ([13]; GI50 MCF10A / GI50 GSC#1): 2.9
Selectivity Index (SI) ([13]; GI50 MCF10A / GI50 GSC#151): 3.1
Selectivity Index (SI) ([13]; GI50 MCF10A / GI50 VIPI): 2.9
Selectivity index (SI) value range ([13]; GI50 MCF10A / GI50 of GSC lines, range over nine GSC lines): 1.6 to 13.3
Selectivity Index (SI) ([14]; GI50 hTERT-HPNE / GI50 COMI): 43.8
Selectivity Index (SI) ([14]; GI50 hTERT-HPNE / GI50 G144): 21.9
Selectivity Index (SI) ([14]; GI50 hTERT-HPNE / GI50 G166): 7.3
Selectivity Index (SI) ([14]; GI50 hTERT-HPNE / GI50 GB6): 5.1
Selectivity Index (SI) ([14]; GI50 hTERT-HPNE / GI50 GB7): 35
Selectivity Index (SI) ([14]; GI50 hTERT-HPNE / GI50 GB8): 6.3
Selectivity Index (SI) ([14]; GI50 hTERT-HPNE / GI50 GSC#1): 9.7
Selectivity Index (SI) ([14]; GI50 hTERT-HPNE / GI50 GSC#151): 10.3
Selectivity Index (SI) ([14]; GI50 hTERT-HPNE / GI50 VIPI): 9.7
Selectivity index (SI) value range ([14]; GI50 hTERT-HPNE / GI50 of GSC lines, range over nine GSC lines): 5.1 to 43.8
GI50 [15]: 0.04 µM
fold greater potency than ATO on the GSC line panel [16]: 8.7–27 fold

Source: article PMC10051910 (Marine Drugs, 2023)
